The values that follow come from paper PMC10850085 (Nature Communications, 2024).

Assay [1] addresses T1, full-length murine Thrombopoietin (Tpo) (mouse, UniProt P40226 22-356, heavily glycosylated).
T1 construct: Thrombopoietin, mouse, residues 22 to 356; Cloned in pcDNA3.0 behind the mIL3 secretion signal and an N-terminal FLAG tag; also called full-length Tpo; full-length cytokine; source: FreeStyle 293-F cells, transfected, secreted
In words: SPR; monomeric TpoR ectodomain as analyte over Tpo (full length, TpoN or F162E) directly coupled to a CM5 chip (EDC/NHS); HBS-EP; Biacore 8k; single cycle kinetics, 1:1 binding model; two-fold dilution series, highest 250 nM. The conditions noted are these: both partners purified. For orientation: In SPR one partner is held on a chip, and binding of the other changes the refractive index at the surface.

For assay [2], the target named is T1, full-length murine Thrombopoietin (Tpo). In words: SPR; Tpo (wild-type or site II mutants) as analyte over immobilised monomeric or dimeric TpoR (CM5, EDC/NHS); HBS-EP; single-site binding model; highest 15 nM, 250 nM or 50 nM. The conditions noted are these: both partners purified.

B1: murine TpoR ectodomain, monomeric (TpoR_(1-479)) (receptor, mouse, UniProt Q08351 26-479, looked up)
chain: QDVFLLALGTEPLNCFSQTFEDLTCFWDEEEAAPSGTYQLLYAYRGEKPRACPLYSQSVPTFGTRYVCQFPAQDEVRLFFPLHLWVKNVSLNQTLIQRVLFVDSVGLPAPPRVIKARGGSQPGELQIHWEAPAPEISDFLRHELRYGPTDSSNATAPSVIQLLSTETCCPTLWMPNPVPVLDQPPCVHPTASQPHGPAPFLTVKGGSCLVSGLQAGKSYWLQLRSQPDGVSLRGSWGPWSFPVTVDLPGDAVTIGLQCFTLDLKMVTCQWQQQDRTSSQGFFRHSRTRCCPTDRDPTWEKCEEEEPRPGSQPALVSRCHFKSRNDSVIHILVEVTTAQGAVHSYLGSPFWIHQAVLLPTPSLHWREVSSGRLELEWQHQSSWAAQETCYQLRYTGEGREDWKVLEPSLGARGGTLELRPRARYSLQLRARLNGPTYQGPWSAWSPPARVSTGSE
modifications: N-linked glycans at N117, N178, N349; tryptophan mannosylation (W465, W468)
notes: signal peptide in the construct; Thrombopoietin receptor (c-Mpl), mouse, residues 1-479, followed by a TEV cleavage site and the Fc domain of hIgG1; Eluted from Protein G resin by TEV cleavage; residues of the TEV site may remain at the C-terminus; also called murine TpoR (monomeric); source: Expi293F cells, transiently transfected, secreted; purified (Protein G Sepharose, TEV elution, Superdex …)
What is called Kd is the constant that tells how readily two partners part at equilibrium. A lower Kd goes with higher affinity. For B1, the equilibrium dissociation constant (Kd) in assay [1] was found to be 100 ± 20 nM; in assay [2], 1 nM.
